Literature values in patent US20240269123A1, “MUSCLE REGENERATION PROMOTER” (priority 2021, published 2024).

System: histamine H3 receptor
Settings: statement taken from the literature; cited from earlier work

N=C(N)SCCc1c[nH]cn1 [Compound 8, 2-(1H-imidazol-4-yl)ethyl carbamimidothioate]
selectivity of agonist activity for the histamine H3 receptor over other histamine receptors: selective histamine H3 receptor agonist
